Assay [1] concerns the target recombinant human alpha 1D adrenergic receptor (ADR1D) (Homo sapiens, UniProt P25100). The assay can be described thus: Radioligand binding, alpha 1D adrenergic receptor (Adr1D).
The subject of assay [2] is VC and laryngeal muscles/laryngospasm. The conditions noted are these: rat model; cited from earlier work.

The chains behind the UniProt entries cited, without tags or fusion partners.
UniProt P25100, whole entry: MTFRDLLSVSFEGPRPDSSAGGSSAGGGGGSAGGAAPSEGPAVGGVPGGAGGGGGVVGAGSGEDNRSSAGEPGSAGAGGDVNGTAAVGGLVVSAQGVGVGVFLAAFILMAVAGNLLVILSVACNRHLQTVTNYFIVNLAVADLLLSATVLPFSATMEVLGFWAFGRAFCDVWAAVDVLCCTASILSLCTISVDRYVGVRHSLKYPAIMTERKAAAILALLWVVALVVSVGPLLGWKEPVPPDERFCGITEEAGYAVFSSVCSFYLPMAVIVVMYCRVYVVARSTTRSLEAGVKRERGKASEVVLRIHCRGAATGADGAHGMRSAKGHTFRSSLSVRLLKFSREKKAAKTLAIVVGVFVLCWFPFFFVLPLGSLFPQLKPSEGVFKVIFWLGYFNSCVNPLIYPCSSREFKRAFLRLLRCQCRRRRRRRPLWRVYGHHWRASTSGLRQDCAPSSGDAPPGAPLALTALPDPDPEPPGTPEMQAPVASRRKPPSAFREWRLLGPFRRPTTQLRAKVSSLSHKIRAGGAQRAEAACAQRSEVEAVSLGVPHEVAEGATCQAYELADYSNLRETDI

Bounds are passed on as bounds.

Take `NC[C@H](O)c1ccc(O)c(O)c1` [norepinephrine]: in assay [1], the BA at 1D greater than carfentanil is 20 ×; the BA at 1D greater than fentanyl was determined as 30 ×; the “greater affinity at the 1D compared to carfentanil and fentanyl, respectively” value is on record as 25-30 fold.
For `C=CCN1CC[C@]23c4c5ccc(O)c4O[C@H]2C(=O)CC[C@@]3(O)[C@H]1C5.Cl` [naloxone, 17-Allyl-4,5α-epoxy-3,14-dihydroxymorphinan-6-one hydrochloride], the “dose at which naloxone has an effect on fentanyl VC/laryngospasm” value in assay [2] is more than 0.8 mg/kg.

Source of the values: US20230372302A1 (priority 2019, published 2023).
